Target: recombinant human neutral endopeptidase (NEP, EC 3.4.24.11) (Homo sapiens (Human), UniProt P08473)
Test: in vitro inhibition of recombinant human neutral endopeptidase (fluorescence lifetime assay)
Assay type: biochemical
Settings: 1 hour pre-incubation, read after 60 min at room temperature, pH 7.4, substrate Cys(PT14)-Arg-Arg-Leu-Trp-OH 0.7 μM

Sequences of proteins named here, by UniProt entry; tags and fusion partners are left off. A change or cut given only in a name is not applied to a line headed by its entry.
UniProt P08473: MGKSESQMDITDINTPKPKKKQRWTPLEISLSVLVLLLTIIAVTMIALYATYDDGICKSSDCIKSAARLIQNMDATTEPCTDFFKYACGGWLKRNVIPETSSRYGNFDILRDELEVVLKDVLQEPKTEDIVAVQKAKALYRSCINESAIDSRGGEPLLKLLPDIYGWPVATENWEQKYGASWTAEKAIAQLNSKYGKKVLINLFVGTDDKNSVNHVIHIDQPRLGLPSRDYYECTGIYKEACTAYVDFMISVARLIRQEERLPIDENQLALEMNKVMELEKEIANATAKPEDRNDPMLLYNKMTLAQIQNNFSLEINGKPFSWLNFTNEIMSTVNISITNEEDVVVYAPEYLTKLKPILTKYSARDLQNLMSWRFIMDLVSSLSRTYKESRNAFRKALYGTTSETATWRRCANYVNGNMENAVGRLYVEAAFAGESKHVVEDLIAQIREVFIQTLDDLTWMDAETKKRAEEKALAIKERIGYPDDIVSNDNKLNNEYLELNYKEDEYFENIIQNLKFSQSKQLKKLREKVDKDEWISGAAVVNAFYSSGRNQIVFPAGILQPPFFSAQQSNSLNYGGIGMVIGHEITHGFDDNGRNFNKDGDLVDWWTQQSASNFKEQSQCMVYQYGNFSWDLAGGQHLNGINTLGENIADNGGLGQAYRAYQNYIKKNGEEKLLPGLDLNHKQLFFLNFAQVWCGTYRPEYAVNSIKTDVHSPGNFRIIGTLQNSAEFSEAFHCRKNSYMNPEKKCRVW

Row | SMILES | IC50 [nM]
1 | O=C(O)C[C@@H](Cc1ccc(-c2cccc(Cl)c2)cc1)NC(=O)c1n[nH]c(=O)o1 [Example 5-46] | 0.5
2 | O=C(O)C[C@@H](Cc1ccc(-c2ccccc2)cc1)NC(=O)c1cc(C(=O)O)ncn1 [Example 5-12] | 67
3 | CCc1ncc(C(=O)N[C@@H](CC(=O)O)Cc2ccc(-c3cccc(Cl)c3)cc2)o1 [Example 5-47] | 2.7
4 | O=C(O)C[C@@H](Cc1ccc(-c2cccc(Cl)c2)cc1)NC(=O)C(F)(F)C(F)(F)C(=O)O [Example 11-11] | 0.5
5 | CCCCOC(=O)CCC(=O)N[C@@H](CC(=O)O)Cc1ccc(-c2cccc(Cl)c2)cc1 [Example 3-25, (R)-3-(4-butoxy-4-oxobutanamido)-4-(3′-chlorobiphenyl-4-yl)butanoic acid] | 18
6 | O=C(O)C[C@@H](Cc1ccc(-c2ccccc2)cc1)NC(=O)c1cnc(O)nc1 [Example 5-11] | 3
7 | CCOC(=O)CCCC(=O)N[C@@H](CC(=O)O)Cc1ccc(-c2cccc(Cl)c2)cc1 [Example 3-26] | 15
8 | COc1ccc(F)cc1-c1ccc(C[C@H](CC(=O)O)NC(=O)c2cc(O)no2)cc1 [Example 5-55] | 0.7
